Data taken from patent US8187832B2, “Method of detecting an amount of a cholinesterase inhibitor in a sample” (dated 2012).
Where “and” joins values, the source holds several entries; their conditions need not be identical. Identical values can stand only once. Like-named read-outs stand apart in the source and are kept apart here.

Chains of the proteins cited; added tags and fusions are not shown. Lines headed by an entry give the natural chain unless they say otherwise; changes in a name come on top. Residues count along the entry.
UniProt O42275, 24-633 limits assumed: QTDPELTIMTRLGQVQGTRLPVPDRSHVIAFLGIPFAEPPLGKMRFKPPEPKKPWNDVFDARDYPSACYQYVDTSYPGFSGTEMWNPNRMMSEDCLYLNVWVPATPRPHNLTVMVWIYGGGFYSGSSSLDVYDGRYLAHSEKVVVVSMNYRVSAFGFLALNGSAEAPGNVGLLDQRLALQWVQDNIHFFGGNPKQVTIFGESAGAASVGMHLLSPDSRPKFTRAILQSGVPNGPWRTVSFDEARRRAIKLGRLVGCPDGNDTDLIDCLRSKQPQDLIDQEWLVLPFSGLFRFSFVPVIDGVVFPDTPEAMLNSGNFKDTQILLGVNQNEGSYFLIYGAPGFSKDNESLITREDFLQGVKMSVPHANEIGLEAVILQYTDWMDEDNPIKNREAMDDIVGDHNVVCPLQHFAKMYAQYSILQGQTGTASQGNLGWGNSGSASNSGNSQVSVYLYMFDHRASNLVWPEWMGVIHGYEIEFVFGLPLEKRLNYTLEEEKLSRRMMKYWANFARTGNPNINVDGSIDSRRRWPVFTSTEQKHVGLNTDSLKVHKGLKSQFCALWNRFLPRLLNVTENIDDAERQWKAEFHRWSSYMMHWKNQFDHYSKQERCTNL
UniProt P22303: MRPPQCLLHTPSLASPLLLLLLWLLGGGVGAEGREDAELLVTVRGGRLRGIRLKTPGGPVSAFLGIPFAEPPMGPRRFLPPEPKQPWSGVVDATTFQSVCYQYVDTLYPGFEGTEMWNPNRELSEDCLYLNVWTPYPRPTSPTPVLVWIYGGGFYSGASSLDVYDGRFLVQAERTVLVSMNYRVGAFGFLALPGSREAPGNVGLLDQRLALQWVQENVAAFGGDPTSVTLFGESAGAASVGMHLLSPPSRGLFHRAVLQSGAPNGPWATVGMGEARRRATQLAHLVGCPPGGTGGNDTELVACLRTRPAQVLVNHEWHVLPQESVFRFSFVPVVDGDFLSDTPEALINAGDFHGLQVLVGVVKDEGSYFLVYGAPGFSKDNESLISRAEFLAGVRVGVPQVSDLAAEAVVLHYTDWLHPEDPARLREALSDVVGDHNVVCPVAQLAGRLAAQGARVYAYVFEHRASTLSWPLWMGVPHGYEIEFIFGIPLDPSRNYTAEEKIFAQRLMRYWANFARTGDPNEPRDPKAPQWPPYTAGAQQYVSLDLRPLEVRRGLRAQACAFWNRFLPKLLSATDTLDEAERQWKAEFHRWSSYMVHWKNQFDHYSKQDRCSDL

Assays:
[1] = after oral administration of 30-60 mg, metabolic excretion and conversion not considered; cited from earlier work
[2] = molecular target: acetylcholinesterase (AChE) (Electrophorus electricus, UniProt O42275); assay: KF inhibitory effects on acetylcholinesterase
[3] = molecular target: Immobilised AChE (ImmAChE), acetylcholinesterase from electric eels (Electrophorus electricus, UniProt O42275)
Blood AChE = Blood AChE (Homo sapiens, UniProt P22303); assay: Blood acetylcholinesterase inhibition in spiked human blood (conventional/commercial AChE assay kit)
[4] = 1000 nM Dichlorvos spiked in blood
[5] = 1250 nM Dichlorvos spiked in blood
[6] = 1500 nM Dichlorvos spiked in blood

For CN(C)C(=O)Oc1ccc[n+](C)c1, the “Pyr concentration in blood” value [1] is given as 1 E-07 M.

With potassium fluoride the “decrease of enzyme activities (AChE)” value ([2]; 2 mM KF) was “more than 70%” and the AChE inhibition ([2]; 20 mM KF) was “complete AChE inhibition”.

In the case of COP(=O)(OC)OC=C(Cl)Cl, the “% Current test Kit Response” value [3, 4] is reported as 22% and 22.7%, the “% Current test Kit Response” value [3, 5] is reported as 30.4% and the “% Current test Kit Response” value [3, 6] is reported as 39.8%. For the same compound, the “% Inhibition of Blood AChE” value (Blood AChE; [4]) was 26.6%, the “% Inhibition of Blood AChE” value (Blood AChE; [5]) was > 30% and 33.0% and the “% Inhibition of Blood AChE” value (Blood AChE; [6]) was 35.0%.
